Earlier results as cited in patent US20230076411A1, “LASSO PEPTIDES FOR TREATMENT OF CANCER” (Lassogen, Inc., priority 2020, published 2023).

The chains behind the UniProt entries cited, without tags or fusion partners. Residues count along the entry.
UniProt P25101, 21-427: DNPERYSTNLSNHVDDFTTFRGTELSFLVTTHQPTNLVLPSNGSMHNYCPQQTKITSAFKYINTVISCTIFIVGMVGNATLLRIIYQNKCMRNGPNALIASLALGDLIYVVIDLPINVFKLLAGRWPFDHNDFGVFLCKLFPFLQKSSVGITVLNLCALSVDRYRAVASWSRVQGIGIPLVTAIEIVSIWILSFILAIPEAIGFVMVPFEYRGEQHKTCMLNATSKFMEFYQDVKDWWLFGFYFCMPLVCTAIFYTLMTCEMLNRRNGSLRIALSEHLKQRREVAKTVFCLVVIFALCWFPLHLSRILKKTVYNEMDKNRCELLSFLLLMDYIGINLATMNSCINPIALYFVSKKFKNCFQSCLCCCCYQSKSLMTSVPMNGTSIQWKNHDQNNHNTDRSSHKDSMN

Molecular target: ETAR receptors (Homo sapiens, UniProt P25101)
Conditions: physiological concentrations; cited from earlier work

ET-3: cognate endothelin ligand, 21-amino acid peptide
Kd: ~6.5 nM
